In the library only some 3.7% were active in any assay of this set; here they are far more common.
A549 tox-1: counter-screen for Nrf2 inhibitors: cytotoxicity in A549 cells | A549 ARE-Fluc cells, CellTiter-Fluor viability, 18-24 h | Potency, µM (titrated, usually from 46 µM), for the others: at the highest dose activity change, negative = cytotoxicity, most hits filed as inhibitors | 390,000 compounds, 0.16% hits | AID 504648; note: potency is the fitted concentration of half-maximal effect; % is set by controls: 0 for no effect and ±100 for the full control effect
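A549 ARE-Fluc cells in 5% FBS OPTI-MEM, 5000 cells/well, rested 2 h then exposed to compounds in concentration-response for 18-24 h at 37 °C. Viability by CellTiter-Fluor fluorescence (Ex 405/Em 525) after 30 min; luciferase luminescence (BugLite, 15 min, RT) read afterwards.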
IL2 activator: IL-2 activation. 360,000 compounds, 0.065% hits. IL-2 activation reporter assay, cell-based qHTS; stimulated with anti-CD3/CD4/CD28 beads; in transgenic mouse T cells. activation, % (series mostly up to about 46 µM); in the data active = activation above about 50%; inconclusive = mostly about 30% to 49%; note: 0% is about no effect
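Readout is EGFP and DsRed signal by fluorescent plate cytometry after 18 h at 37 degrees C. Transgenic mouse T cells (750/well) received compound for 60 min before bead stimulation (anti-CD3, anti-CD4, anti-CD28); memory T cells served as non-tolerant control.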
Nrf2 ARE act: activators of Nrf2 (ARE) signaling | AREc32 ARE-luciferase reporter (MCF7-derived line), luminescence, 24 h | Potency, µM (titrated, usually from 46.1 µM), without a hit: top-dose activation, hits mostly activators | 410,000 compounds, 0.31% hits | AID 624171; note: potency is the fitted concentration of half-maximal effect; % of control where 0% means no effect; nearly all actives have a fitted effect of over 65% in size
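Luciferase luminescence (Steady-Glo, 30 min at room temperature) served as the read-out of ARE activation in AREc32 cells treated with compounds for 24 hr at 37 deg C.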
Nrf2 block: blocks Nrf2 signaling | A549 ARE-Fluc reporter, luciferase luminescence, 18-24 h | Potency, µM (top dose mostly 46 µM), for the others: at the top dose activity change, negative = inhibition, most hits filed as inhibitors | 360,000 compounds, 2.1% hits | AID 504444; note: potency is the fitted concentration of half-maximal effect; % is set by controls: 0 for no effect and ±100 for the full control effect; nearly all actives have a fitted effect of over 60% in size
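A549 ARE_Fluc cells, 5000/well, 5% FBS OPTI-MEM; compounds in dose-response, 18-24 h at 37 °C/5% CO2; CellTiter-Fluor viability read (Ex 405/Em 525), then BugLite luciferase luminescence = Nrf2 activity.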
ClpP mod: qHTS Assay for Activators of ClpP | ATP-dependent Clp protease proteolytic subunit (Bacillus subtilis (strain 168)), P80244 | purified B. subtilis ClpP, FRET peptide cleavage, 20 min | Potency, µM (titrated, usually from 57.5 µM), inactives show top-dose activity change, negative = active | 340,000 compounds, 1.9% hits | AID 651965, 2013; active = well fitted falling curve with a large enough effect; inconclusive = small, poorly fitted or top-dose-only effect; inactive = no such curve, though single readings can be large or run the other way; note: potency is the fitted concentration of half-maximal effect; the source files actives as falling curves though it sought activators and does not explain the sign; nearly all actives have a fitted effect of over 65% in size
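FRET quenching reversal measured ClpP activation: 10 microg/mL B. subtilis ClpP at pH 8 with the FRET-FV decapeptide, read at 430 nm after 320 nm excitation. The 20-min minus 0-min signal was scaled between DMSO/no-enzyme wells and ADEP (5.8 microM final).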
miR-21 FLuc: miR-21 reporter, rising signal; Potency, µM (doses to about 38.3 µM), without a hit: at the top dose reporter change, positive = more light; HeLa miR-21 FLuc reporter, luciferase, 48 h; 340,000 tested, under 10 active; active = well fitted rising curve with a large enough effect; inconclusive = small, poorly fitted or top-dose-only effect; inactive = no such curve, though single readings can be large or run the other way;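 further: % of control where 0% means no effect; miR-21 action dims this reporter so a rising signal means less miR-21 action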
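HeLa cells stably expressing CMV-driven firefly luciferase with a downstream miR-21 binding sequence, endogenously expressing miR-21, were treated with titrations (up to about 40uM final) for 48 hours at 37 degree Celsius. Luciferase luminescence was read after lysis.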
FLuc enzyme inh: counter-screen for Nrf2 inhibitors: firefly luciferase enzyme inhibition | shares compounds with Nrf2 block | purified firefly luciferase, luminescence inhibition | Potency, µM (doses to about 57.5 µM), for the others: at the top dose activity change, negative = inhibition, most hits filed as inhibitors | 1,400 compounds, 4% hits | AID 720522; note: potency is the fitted concentration of half-maximal effect; % is set by controls: 0 for no effect and ±100 for the full control effect; nearly all actives have a fitted effect of over 65% in size
A549 tox-2: A549 cytotoxicity, Nrf2 inhibitor counterscreen; shares compounds with Nrf2 block; A549 ARE-Fluc cells, cytotoxicity counterscreen; Potency, µM (highest dose often 46.1 µM), for the others: at the highest dose activity change, negative = cytotoxicity, most hits filed as inhibitors; 1,400 compounds, 2% hits;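 note: potency is the fitted concentration of half-maximal effect; cells exposed to compounds for 18 to 24 hours; % is set by controls: 0 for no effect and ±100 for the full control effect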
ARE-Fluc inh: reduces Nrf2 ARE reporter signal in A549 cells; 1,400 compounds, 74% hits; A549 ARE-firefly luciferase reporter, luminescence; shares compounds with Nrf2 block; Potency, µM (highest dose often 46.1 µM), without a hit: top-dose activity change, negative = inhibition, most hits filed as inhibitors; note: potency is the fitted concentration of half-maximal effect; % is set by controls: 0 for no effect and ±100 for the full control effect; nearly all actives have a fitted effect of over 65% in size
Active calls of the source: *; ? = inconclusive; · = no result given; [ ] = remark or other dose. Unless noted, calls come from the whole dose curve; as a rule, active = well fitted curve in the direction sought with a large enough effect; inconclusive = small, poorly fitted or top-dose-only effect, or another doubt; inactive = no such curve, though single readings can be large; an effect the other way counts as inactive or inconclusive.

compound,A549 tox-2,ARE-Fluc inh,A549 tox-1,ClpP mod,IL2 activator,miR-21 FLuc,Nrf2 ARE act,Nrf2 block,FLuc enzyme inh
CC1CCN(C(=O)C2CCN(C(=O)c3cc4sccc4n3Cc3ccc(F)cc3)CC2)CC1,·,·,2%[1.84 µM],-3%,0,19%,4%,-51%,·
CC(C)NC(=O)C1CCN(C(=O)c2cc3sccc3n2Cc2ccc(Cl)cc2)CC1,?,4.1µM*,-24%,0%,·,?,0%,5.8µM*,1%
COc1cc(OC)cc(-c2cc3nc(C)c(CCC(=O)Nc4ccc(C(C)=O)cc4)c(C)n3n2)c1,-5%,18µM*,-10%,-5%,·,?,-3%,4.1µM*,-12%
COc1cc(OC)cc(-c2cc3nc(C)c(CCC(=O)NCc4ccccc4)c(C)n3n2)c1,3%,7.3µM*,2%,-22%,4,?,-2%,7.3µM*,-18%
Clc1ccccc1OCCSc1nnc(-c2cccs2)o1,·,·,11%,?,·,-17%,18%,18%,·
COc1cc2sc3ccc(C#Cc4ccc(N)cc4)cc3c(=O)c2cc1OC,?,2.3µM*,-21%,3%,0,·,5%,4.6µM*,-22%
Cc1cc(NC(=O)c2cc(-c3ccc(F)cc3)on2)nn1Cc1ccc(Cl)cc1,-10%,2.9µM*,-14%,4%,·,8%,0%,6.5µM*,0%
COc1cccc(-c2cc(C(=O)Nc3cc(C)n(Cc4ccc(Cl)cc4)n3)no2)c1,-9%,7.3µM*,?,-20%,-1,10%,0%,?,-4%
CCOc1ccc(C(=O)N2CCC(c3ccncc3)CC2)cc1,·,·,-17%,-1%,·,16%,0%,·,·
COc1ccc(C(=O)N2CCN(Cc3cc(=O)n4nc(-c5ccccc5C)sc4n3)CC2)cc1OC,·,·,-3%,-1%,·,4%,0%,·,·
CCC(=O)/C=C1/Sc2ccccc2N1CC,·,·,-1%,-3%,-2,-3%,0%,·,·
CCN1/C(=C/c2sc(-c3ccccc3C)c[n+]2C)Sc2ccccc21,?,1.8µM*,?,0%,-6,?,9%,0.37µM*,-1%
CCc1ccc(C(=O)NC2=NC(c3ccccc3F)CC(=O)N2)cc1 (stereo unspecified),·,·,-6%,-1%,·,-2%,1%,16%,·
CC(C)(C)c1ccc(-c2noc(CCC(=O)Nc3cccc(Cl)c3)n2)cc1,1%,·,1%,1%,·,?,-3%,0.15µM*,?
Cc1cccc(-c2noc(CCC(=O)NCc3ccco3)n2)c1,·,·,2%,1%,-3,-14%,6%,·,·
CC(C)(C)c1ccc(-c2noc(CCC(=O)NCc3ccco3)n2)cc1,-6%,0.82µM*,12µM*,·,-1,29%,6%,0.018µM*,1.2µM*
COc1ccc2c(c1)/C(=C\c1cccc(/C=C3/C(=O)Nc4ccc(OC)cc43)n1)C(=O)N2,-16%,?,-29%,1%,2,·,7%,8.2µM*,?
FC(F)(F)c1cc(-c2ccccc2)nc(N2CCCCC2)n1,·,·,3%,?,0,3%,0%,·,·
O=C(O)C1CCCN1c1nc(-c2ccc(Cl)c(Cl)c2)cc(C(F)(F)F)n1 (stereo unspecified),-21%,·,-14%,-9%,0,·,0%,7.3µM*,-12%
O=c1cc(-c2ccccc2)n2c(SCc3ccc(F)cc3)nnc2[nH]1,·,·,1%,-25%,·,-8%,4%,·,·

Next entries
compound,A549 tox-2,ARE-Fluc inh,A549 tox-1,ClpP mod,IL2 activator,miR-21 FLuc,Nrf2 ARE act,Nrf2 block,FLuc enzyme inh
COC(=O)c1ccc(C[n+]2ccccc2)cc1,·,·,1%,-1%,1,-6%,2%,-25%,·
Cc1ccc(C[n+]2ccccc2)cc1,-1%,21µM*,-9%,-1%,0,·,0%,5.2µM*,1%
CC(=O)Nc1sc2c(c1-c1nc3ccccc3s1)CCN(C(C)C)C2,-27%,6.5µM*,-11%,-4%,0,?,-5%,6.5µM*,0%
COc1cccc(NC(=O)c2ccc3[nH]c(C)cc(=O)c3c2)c1,·,·,6%,0%,·,1%,-1%,5%,·
NC(=O)CSc1ncc2c(n1)-c1ccccc1N(Cc1ccc(Cl)cc1)S2(=O)=O,·,·,10%,?,·,-3%,-1%,-9%,·
Cc1sc2ncnc(NCC3COc4ccccc4O3)c2c1C (stereo unspecified),·,·,-5%,-1%,-1,10%,8%,?,·
c1ccc(-c2csc3ncnc(NCC4COc5ccccc5O4)c23)cc1 (stereo unspecified),0%,1.2µM*,1%,1%,-1,?,8%,1.6µM*,-9%
C[C@]12CCC(=O)C=C1[C@H](O)C[C@@H]1[C@@H]2[C@@H](O)C[C@@]2(C)[C@H]1CC[C@]2(O)C(=O)CO,·,·,-1%,0%,0,-24%,0%,7%,·
C[C@]12CCC(=O)C=C1CC[C@@H]1[C@@H]2[C@@H](O)C[C@@]2(C)[C@H]1CC[C@]2(O)C(=O)CO,?,0.29µM*,1%,-2%,-1,-31%,1%,0.029µM*,3%
CC12CCC(=O)C=C1CCC1C2C(O)CC2(C)C1CCC2(O)C(=O)CO (stereo unspecified),-5%,0.092µM*,-9%,2%,0,-26%,0%,0.12µM*,-1%
Cc1cccc(NC(=O)CCc2c(C)nc3nc(CNC(=O)c4cccc(F)c4)nn3c2C)c1,·,·,-6%,1%,·,-2%,1%,-4%,·
CC(=O)Nc1ccc(NC(=S)NC(=O)/C=C/c2ccc(Cl)cc2)cc1,·,·,0%,·,-3,-1%,0%,?,·
O=C(/C=C/c1ccc(Cl)cc1)NC(=S)Nc1ccc(NC(=O)c2ccco2)cc1,-24%,0.82µM*,-15%,-2%,-2,20%,4%,0.82µM*,0%
Cc1nn(C)c(C)c1CN(C)S(=O)(=O)c1ccc2ccccc2c1,-1%,1.2µM*,-30%,-4%,-1,15%,0%,2.5µM*,1%

Single records, as listed above:
`COc1cccc(NC(=O)c2ccc3[nH]c(C)cc(=O)c3c2)c1` is listed with A549 tox-2 = ·; ARE-Fluc inh = ·; A549 tox-1 = 6%; ClpP mod = 0%; IL2 activator = ·; miR-21 FLuc = 1%; Nrf2 ARE act = -1%; Nrf2 block = 5%; FLuc enzyme inh = ·
`COC(=O)c1ccc(C[n+]2ccccc2)cc1` is listed with A549 tox-2 = ·; ARE-Fluc inh = ·; A549 tox-1 = 1%; ClpP mod = -1%; IL2 activator = 1; miR-21 FLuc = -6%; Nrf2 ARE act = 2%; Nrf2 block = -25%; FLuc enzyme inh = ·
